{"source": "patent US7605155B2", "about": "(dated 2009)", "target": "CDK2 (either cyclin A or E-dependent) (Homo sapiens, UniProt P24941)", "test": "biochemical"}
{"smiles": "Cn1cc(-c2cnn3c(N)c(Br)c(CC4CCCNC4)nc23)cn1", "note": "(stereo not drawn)", "values": [{"measurement": "IC50", "value": 2400, "unit": "nM"}]}
{"smiles": "Cn1cc(-c2cnn3c(N)c(Br)c(CC4CCNC4)nc23)cn1", "note": "(stereo not drawn)", "values": [{"measurement": "IC50", "value": 840, "unit": "nM"}]}
{"smiles": "Cn1cc(-c2cnn3c(N)c(Br)c(CCN)nc23)cn1", "values": [{"measurement": "IC50", "value": 920, "unit": "nM"}]}
